Test results reported in publication PMC3282105, “Antitumoral activity of allosteric inhibitors of protein kinase CK2” (2011).

Protein sequences, listed by entry. Tags and fused reporters are not part of them. Residues count along the entry.
UniProt P68400, 1-335 limits assumed: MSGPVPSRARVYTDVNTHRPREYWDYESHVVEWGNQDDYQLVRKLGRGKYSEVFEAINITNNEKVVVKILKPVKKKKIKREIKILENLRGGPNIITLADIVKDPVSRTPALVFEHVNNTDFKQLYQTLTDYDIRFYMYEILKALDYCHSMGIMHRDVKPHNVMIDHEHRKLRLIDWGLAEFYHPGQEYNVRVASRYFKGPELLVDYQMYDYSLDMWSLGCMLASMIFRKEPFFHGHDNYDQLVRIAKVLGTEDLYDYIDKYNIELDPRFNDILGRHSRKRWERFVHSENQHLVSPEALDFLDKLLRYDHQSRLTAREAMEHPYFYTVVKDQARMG

Biological target: CK2α (Homo sapiens, UniProt P68400)
Test: radiometric kinase assay dose-response, Lineweaver-Burk kinetics, reversibility by gel filtration; SAXS of the complex

IC50: 5 µM
Compound: O=[N+]([O-])c1ccc2c(N=Nc3c(O)ccc4ccccc34)c(O)cc(S(=O)(=O)O)c2c1
